Some compounds may have been tested in ways that are not shown here.

The target of this experiment is mu opioid receptor (MOR) (Rattus norvegicus, UniProt P33535). Description: [[…] radioligand binding assay, HEK-MOR membranes. The note with it: read-out: Kd value in MOR, used for the Ki calculation.

Broadly, the Kd is a measure of binding affinity in units of concentration. On to [3H]diprenorphine, for which the Kd was 0.4 nM.

Values taken from article PMC7545175 (Scientific Reports, 2020).
